Source: PubChem BioAssay AID1259370 (Center for Chemical Genomics, University of Michigan, 2018)
Values joined by “and” are separate entries in the source; they are usually repeats but may differ in a detail not shown here. Equal entries are not always repeated. This is a selection; strong and weak results do not stand in their true shares. Active and inactive are the calls of the source. Cut-off read from the data, not from the text of the source: active = z-score above about 3.2; inactive = the rest.

The compounds below were run against M-phase inducer phosphatase 2 (Homo sapiens) + Cyclin-dependent kinase 2 (Homo sapiens) + Cyclin-A2 (Homo sapiens) (UniProt P30305+P24941+P20248) (assay: primary biochemical HTRF screen for inhibition of M-phase inducer phosphatase 2 binding to cyclin-dependent kinase 2/cyclin A (AID 1259370)). Settings: HTRF CDC25B-CDK2/CyclinA binding, anti-His/anti-Flag; active compounds read high.

Q: For COC(=O)NC(Sc1ccc(Cl)cc1)C(Cl)Cl (configuration not stated), which z-score is on record?
A: inactive: -0.07

Q: Which z-score does the source give for O=[N+]([O-])C1([N+](=O)[O-])COCOC1 here?
A: inactive: -2.49

Q: For O=[N+]([O-])OCCC(CN1CCN(CC(CCO[N+](=O)[O-])([N+](=O)[O-])[N+](=O)[O-])CC1)([N+](=O)[O-])[N+](=O)[O-], which z-score is on record?
A: inactive: 0.68

Q: For C=CCN1CCN(CCOC(=O)C(O)(c2ccccc2)c2ccccc2)CC1, which z-score is on record?
A: inactive: -0.67

Q: For CC[N+](CC)=C1S[C@@H]2CS(=O)(=O)C(Br)[C@]2(C)S1 (some centres not stated), which z-score is on record?
A: inactive: -1.74

Q: With O=C(OC1CN2CCC1CC2)c1cccc(F)c1 (configuration not stated) as the compound, how does the z-score read?
A: inactive: -2.13

Q: For NCCSP(=O)(O)O, which z-score is on record?
A: inactive: -1.07

Q: For ClC(Cl)(Cl)C1=NP2(=NC(c3ccccc3)=N1)OCCCO2, which z-score is on record?
A: inactive: -2.29

Q: Which z-score does the source give for CN(C(=O)Cc1ccc(Cl)c(Cl)c1)[C@H]1CCCC[C@@H]1N1CCCC1 here?
A: inactive: 0.44 and inactive: -1.53

Q: With O=C(CCc1ccccc1)OC1CN2CCC1CC2 (configuration not stated) as the compound, how does the z-score read?
A: inactive: 1.38

Q: How did the z-score turn out when CN(C)CCOC(=O)C(O)(c1ccccc1)C1CCCC1 (configuration not stated) was run?
A: inactive: -1.71

Q: N=C1N=C(c2ccc([N+](=O)[O-])cc2)CC(C(Cl)(Cl)Cl)S1 (configuration not stated) was tested. Which z-score did it give?
A: inactive: 1.94

Q: CCOP(C)(=S)SCN(CC(=O)O)C(=O)OCc1ccccc1 (configuration not stated) was tested. Which z-score did it give?
A: inactive: 1.12

Q: For O=C(OC1CN2CCC1CC2)C12CC3CC(CC(C3)C1)C2 (configuration not stated), which z-score is on record?
A: inactive: -0.99

Q: For CCOC(=O)/C(=N/Nc1ccc([N+](=O)[O-])cc1)N1CC1, which z-score is on record?
A: inactive: -1.08

Q: Which z-score does the source give for O=C(COc1ccc(F)cc1)OC1CN2CCC1CC2 (configuration not stated) here?
A: inactive: -0.15

Q: With CCCOP(=O)(OCCC)O/C(C)=C/SC#N as the compound, how does the z-score read?
A: inactive: -0.5

Q: How did the z-score turn out when O=C(O)C1(O)c2ccccc2-c2ccccc21 was run?
A: inactive: -2.1

Q: For CCOP(C)(=S)SCSCC(=O)OCC(C)C (configuration not stated), which z-score is on record?
A: inactive: -1.24

Q: With O=[N+]([O-])c1nnn(CN(Cn2nnc([N+](=O)[O-])n2)[N+](=O)[O-])n1 as the compound, how does the z-score read?
A: inactive: -1.01

Q: For O=C(NNC(=O)c1ccncc1)NP1Oc2ccccc2O1, which z-score is on record?
A: inactive: -0.7

Q: How did the z-score turn out when CN(C)CCOC(=O)C(O)(c1ccccc1)c1ccccc1 was run?
A: inactive: -1.53

Q: CC1=NCCCN1C.O=[N+]([O-])c1cc([N+](=O)[O-])c(O)c([N+](=O)[O-])c1 was tested. Which z-score did it give?
A: inactive: -2.87

Q: For Nc1nonc1N=Nc1nonc1N, which z-score is on record?
A: inactive: -2.26

Q: For O=C(COc1ccccc1)OC1CN2CCC1CC2 (configuration not stated), which z-score is on record?
A: inactive: 1.49

Q: For COC(=O)C1=C(C(=O)OC)S[C@](Br)(C(=O)OC)[C@@](Br)(C(=O)OC)S1, which z-score is on record?
A: inactive: 1.11

Q: How did the z-score turn out when O=[N+]([O-])c1nonc1COc1nonc1[N+](=O)[O-] was run?
A: inactive: -2.72

Q: Which z-score does the source give for Cc1cc(NP(=O)(Oc2ccccc2)Oc2ccccc2)no1 here?
A: inactive: -0.8

Q: For O=C(OC1CN2CCC1CC2)c1cccc([N+](=O)[O-])c1 (configuration not stated), which z-score is on record?
A: inactive: -1.93

Q: BrC1CSc2nc3ccccc3n2C1c1ccccc1 (configuration not stated) was tested. Which z-score did it give?
A: inactive: -0.08

Q: Which z-score does the source give for O=[N+]([O-])C(F)(F)COc1nc(OCC(F)(F)[N+](=O)[O-])nc(OCC(F)(F)[N+](=O)[O-])n1 here?
A: inactive: -2.7

Q: With Cc1n[n+]2c([nH]c1=O)SCC(Br)C2c1ccccc1 (configuration not stated) as the compound, how does the z-score read?
A: inactive: -0.99

Q: For CN1CC(=O)N/C1=N\P(=O)(OCc1ccccc1)OCc1ccccc1, which z-score is on record?
A: inactive: -1.92

Q: For CN(C(=O)Cc1ccccc1)[C@@H]1CC[C@]2(CCCO2)C[C@H]1N1CCCC1, which z-score is on record?
A: inactive: -1.2

Q: Which z-score does the source give for COc1cc(-n2cnnn2)ccc1-n1cnnn1 here?
A: inactive: -1.02

Q: CN(C(=O)Cc1ccc(Cl)c(Cl)c1)[C@@H]1CC[C@]2(CCCO2)C[C@H]1N1CCCC1 was tested. Which z-score did it give?
A: inactive: -1

Q: Which z-score does the source give for Nc1nonc1N=NNc1nonc1N here?
A: inactive: -3.09
